By UniProt entry, the sequences of proteins in these tests, tags left out. Where a name states a change or a piece, a line headed by the entry shows the natural chain unless it says otherwise.
UniProt P30994: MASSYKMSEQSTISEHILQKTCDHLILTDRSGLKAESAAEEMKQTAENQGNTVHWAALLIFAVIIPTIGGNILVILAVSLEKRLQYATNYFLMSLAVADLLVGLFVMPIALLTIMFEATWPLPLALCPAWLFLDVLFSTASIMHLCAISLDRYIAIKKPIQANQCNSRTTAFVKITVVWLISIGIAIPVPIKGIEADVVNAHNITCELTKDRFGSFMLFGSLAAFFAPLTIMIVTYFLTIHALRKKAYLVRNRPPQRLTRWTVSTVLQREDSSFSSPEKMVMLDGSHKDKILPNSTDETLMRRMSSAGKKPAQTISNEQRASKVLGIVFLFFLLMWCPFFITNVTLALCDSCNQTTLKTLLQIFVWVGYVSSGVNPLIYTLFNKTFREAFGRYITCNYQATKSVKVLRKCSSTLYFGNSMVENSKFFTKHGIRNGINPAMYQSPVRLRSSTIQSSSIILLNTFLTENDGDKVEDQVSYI
UniProt P08909: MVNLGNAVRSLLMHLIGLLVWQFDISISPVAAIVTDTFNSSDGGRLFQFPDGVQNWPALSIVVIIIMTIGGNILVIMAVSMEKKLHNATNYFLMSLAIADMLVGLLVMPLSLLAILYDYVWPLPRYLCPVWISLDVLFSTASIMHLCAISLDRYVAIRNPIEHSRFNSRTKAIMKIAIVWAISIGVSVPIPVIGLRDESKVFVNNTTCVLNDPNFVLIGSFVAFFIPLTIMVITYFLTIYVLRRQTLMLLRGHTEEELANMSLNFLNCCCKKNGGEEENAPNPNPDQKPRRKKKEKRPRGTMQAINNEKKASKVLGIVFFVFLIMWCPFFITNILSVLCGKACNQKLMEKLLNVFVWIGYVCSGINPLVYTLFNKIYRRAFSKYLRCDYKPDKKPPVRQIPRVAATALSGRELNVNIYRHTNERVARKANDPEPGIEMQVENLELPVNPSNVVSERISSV
UniProt P14842: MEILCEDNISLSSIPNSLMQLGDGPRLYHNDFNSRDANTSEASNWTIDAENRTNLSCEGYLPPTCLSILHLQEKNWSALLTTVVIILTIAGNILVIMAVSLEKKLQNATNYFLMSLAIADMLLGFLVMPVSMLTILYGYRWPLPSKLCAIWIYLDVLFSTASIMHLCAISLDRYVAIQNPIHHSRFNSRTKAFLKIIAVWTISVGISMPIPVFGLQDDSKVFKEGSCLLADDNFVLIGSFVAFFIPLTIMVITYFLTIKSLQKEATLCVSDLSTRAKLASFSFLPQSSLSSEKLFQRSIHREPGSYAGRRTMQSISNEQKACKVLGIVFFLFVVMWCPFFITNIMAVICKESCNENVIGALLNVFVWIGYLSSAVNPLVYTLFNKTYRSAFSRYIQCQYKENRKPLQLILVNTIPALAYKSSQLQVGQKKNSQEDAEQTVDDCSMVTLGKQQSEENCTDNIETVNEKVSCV

According to ChEMBL document CHEMBL1126850, “Examination of the D2/5-HT2 affinity ratios of resolved 5,6,7,8,9,10-hexahydro-7,10-iminocyclohept[b]indoles: an enantioselective approach toward the design of potential atypical antipsychotics” (J Med Chem, 1993):

Biological target: Serotonin 2 (5-HT2) receptor (Rattus norvegicus, UniProt P30994+P08909+P14842)
Assay: In vitro binding affinity towards 5-hydroxytryptamine 2 receptor in rat striatal membranes by [3H]ketanserin displacement.
Assay type: cell membranes, Striatum, Membrane

Ki: 0.61 nM
Structure (SMILES): Cc1nc2sccn2c(=O)c1CCN1CCC(=C(c2ccc(F)cc2)c2ccc(F)cc2)CC1 [RITANSERIN]
